Only a part is listed here, and it is no random draw. Activity calls are given as the source filed them.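 The calls were made as follows: active = GFP response vs DMSO above a set limit, about the screen mean plus 3 SD (cut at about 150% in these data); inconclusive = under 70 cell events counted for the yeast strain; inactive = the rest.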
Assay: TOR pathway LAP4-GFP level changes – S. cerevisiae, multiplex flow cytometry, MLPCN library, primary screen (AID 2023)
Conditions: 3 h, at 10 µM, active compounds read high, median GFP as percent of DMSO wells
For `O=C(NC(Sc1ccncn1)C(Cl)(Cl)Cl)c1ccccc1` (stereo unspecified), the GFP response vs DMSO was inactive: 92.4%. With `CC(C)CC(=O)NC(Sc1ccc(Cl)cc1)C(Cl)(Cl)Cl` (stereo unspecified) the GFP response vs DMSO was inactive: 102%. In the case of `Nc1cc(N)c2nonc2c1[N+](=O)[O-]`, the GFP response vs DMSO is reported as inactive: 109%. With `Clc1ccc(Cl)c(NC2=NCC(CBr)S2)c1` (stereo unspecified) the GFP response vs DMSO was inactive: 84.4%. With `CN1CCCC(OC(=O)C(c2ccccc2)c2ccccc2)C1` (stereo unspecified) the GFP response vs DMSO was inactive: 100%. With `COc1ccccc1OP(=O)(Nc1ccc(C)cn1)Oc1ccccc1OC` the GFP response vs DMSO was inactive: 104%. For `Cc1ccc(OP(=O)(Nc2nccs2)Oc2ccc(C)cc2)cc1`, the GFP response vs DMSO was inactive: 109%. With `CN(C(=O)Cc1ccc(Cl)c(Cl)c1)[C@H]1CCCC[C@H]1N1CCCC1` the GFP response vs DMSO was inactive: 110%. With `Cc1ccc(N/C(=N/P(=O)(N2CCOCC2)N2CCOCC2)N2CCOCC2)cc1` the GFP response vs DMSO was inactive: 93.4%. For `NC(=O)c1cc([N+](=O)[O-])cc([N+](=O)[O-])c1N`, the GFP response vs DMSO was inactive: 89.3%. With `CC(=O)Nc1ccc([As](=O)(O)O)c(O)c1` the GFP response vs DMSO was inactive: 97.4%. With `CC(=O)Nc1ccc(Oc2c([N+](=O)[O-])cc([N+](=O)[O-])cc2[N+](=O)[O-])cc1` the GFP response vs DMSO was inactive: 97.5%. In the case of `Cc1ccccc1CN(C)C(=O)COC(=O)C(O)(c1ccccc1)c1ccccc1`, the GFP response vs DMSO is reported as inactive: 105%. In the case of `C[C@@H]1C=CCP(=O)(Oc2ccccc2)O1` (stereo partly specified), the GFP response vs DMSO is reported as inactive: 112%. For `C[C@H]1OP(=O)(Oc2ccccc2)C[C@@H]2O[C@@H]21` (stereo partly specified), the GFP response vs DMSO was inactive: 135%. In the case of `CC(=O)c1ccc(N2CC2c2ccncc2)cc1` (stereo unspecified), the GFP response vs DMSO is reported as inactive: 106%. For `CC(C)(C)C(=O)NC(Sc1ccccc1)C(Cl)(Cl)Cl` (stereo unspecified), the GFP response vs DMSO was inactive: 88.8%. For `O=P1(Nc2nc3ccc(Cl)cc3s2)COc2ccccc2O1` (stereo unspecified), the GFP response vs DMSO was inactive: 101%. With `CCOc1ccc(C2=NCC(CBr)S2)cc1` (stereo unspecified) the GFP response vs DMSO was inactive: 98.4%. For `Cc1ccccc1OP(=O)(Nc1ccccn1)Oc1ccccc1C`, the GFP response vs DMSO was inactive: 101%. In the case of `CC(NC(=O)COC(=O)C(O)(c1ccccc1)c1ccccc1)c1ccccc1` (stereo unspecified), the GFP response vs DMSO is reported as inactive: 104%. In the case of `CN(C)C(=O)Oc1noc2ccccc12`, the GFP response vs DMSO is reported as inactive: 103%. For `O=C(OC1CN2CCC1CC2)c1ccccc1` (stereo unspecified), the GFP response vs DMSO was inactive: 95%. For `CCC(=O)N1C2C3N(C(=O)CC)C1C1N(C(=O)CC)C(C(N1C(=O)CC)N3C(=O)CC)N2C(=O)CC`, the GFP response vs DMSO was inactive: 100%. For `COC(=O)c1cc2c(s1)N=C(c1ccccc1)N(C)P2(=O)N1CCOCC1` (stereo unspecified), the GFP response vs DMSO was inactive: 106%. For `Cc1ccc(OP(=O)(Nc2ccccn2)Oc2ccc(C)cc2)cc1`, the GFP response vs DMSO was inactive: 95.5%. For `CC(=O)NC(SC(=S)N(CC(C)C)CC(C)C)C(Cl)(Cl)Cl` (stereo unspecified), the GFP response vs DMSO was inactive: 101%. With `c1ccc(-c2nn[nH]n2)c(-c2nn[nH]n2)c1` the GFP response vs DMSO was inactive: 102%. In the case of `CCOC(=O)NC(Sc1ccccc1)C(Cl)(Cl)Cl` (stereo unspecified), the GFP response vs DMSO is reported as inactive: 119%. With `Cc1ccc(NP(=O)(Oc2cccc(C)c2)Oc2cccc(C)c2)nc1` the GFP response vs DMSO was inactive: 94.3%. For `O=C(NC1CCS(=O)(=O)C1)NP(=S)(Oc1ccccc1)Oc1ccccc1` (stereo unspecified), the GFP response vs DMSO was inactive: 99.5%. In the case of `CCNC(=S)/N=C(\N)N[N+](=O)[O-]`, the GFP response vs DMSO is reported as inactive: 98.7%. With `O=C(OC1CN2CCC1CC2)c1cccc(Cl)c1` (stereo unspecified) the GFP response vs DMSO was inactive: 93.5%. With `Nc1ccc([As](=O)(O)c2ccc([N+](=O)[O-])cc2)cc1` the GFP response vs DMSO was inactive: 108%. In the case of `C(Cc1nn[nH]n1)Cc1nn[nH]n1`, the GFP response vs DMSO is reported as inactive: 92.4%. In the case of `O=[As](O)(c1ccccc1)c1ccc(O)cc1`, the GFP response vs DMSO is reported as inactive: 99.9%. For `O=[N+]([O-])c1ncn(CCn2cnc([N+](=O)[O-])n2)n1`, the GFP response vs DMSO was inactive: 101%. In the case of `CC(=O)NC(SC(=S)N(C)C)C(Cl)(Cl)Cl` (stereo unspecified), the GFP response vs DMSO is reported as inactive: 96.4%. For `O=[N+]([O-])c1ccc(O)c(/C=N/Nc2ccc([N+](=O)[O-])cc2[N+](=O)[O-])c1`, the GFP response vs DMSO was inactive: 93.4%. For `O=P(Nc1nc2ccccc2s1)(c1ccccc1)c1ccccc1`, the GFP response vs DMSO was inactive: 109%. With `C[C@H]1OP(=O)(Oc2ccccc2)[C@H](O)[C@H](O)[C@H]1N=[N+]=[N-]` (stereo partly specified) the GFP response vs DMSO was inactive: 125%. With `CN(C)C1(CNC(=O)c2ccc(Cl)c(S(N)(=O)=O)c2)CCCCC1` the GFP response vs DMSO was inactive: 95.7%. With `O=P(Nc1ccccn1)(c1ccc(Br)cc1)c1ccc(Br)cc1` the GFP response vs DMSO was inactive: 98%. For `c1nnnn1CCn1cnnn1`, the GFP response vs DMSO was inactive: 103%. For `O=P(Nc1nccs1)(c1ccccc1)c1ccccc1`, the GFP response vs DMSO was inactive: 102%. With `CC(C)C(=O)NC(Sc1ccccc1)C(Cl)(Cl)Cl` (stereo unspecified) the GFP response vs DMSO was inactive: 90.2%.

Reference: PubChem BioAssay AID2023 (NMMLSC, 2009)
